This is a sample that favours compounds with a hit; in the whole collection about 16% have one here.
DT40 TDP1 no CPT – qHTS for Inhibitors of human tyrosyl-DNA phosphodiesterase 1 (TDP1): qHTS in cells in absence of CPT; Potency, µM (series often up to 46.2 µM), actives largely listed as inhibitors; 420,000 tested, 15% active; DT40 Tdp1-/- hTDP1 cells, no CPT, ATP luminescence, 48 h; also: nearly all actives have a fitted effect of over 55% in size
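Chicken DT40 Tdp1-/- cells complemented with human TDP1, screened without camptothecin (DMSO vehicle only), 400 cells/well. Compounds pin-transferred, cells incubated at 37 °C for at least 48 hr. Growth read as ATP-dependent luminescence (CellTiter-Glo, 30 min at RT).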
uPA generation – cell surface uPA generation inhibition; cell surface uPA generation assay, qHTS; AID 540303; 330,000 tested, 0.31% active; Potency, µM (series often up to 38.3 µM), hits mostly inhibitors; active = well fitted inhibition curve with a large enough effect; inconclusive = small, poorly fitted or top-dose-only effect; inactive = no such curve, though single readings can be large or run the other way; tested in mouse RAW 264.7 cells; also: nearly all actives have a fitted effect of over 55% in size
TDP1 cell CPT – DT40-hTDP1 cell growth loss with CPT; chicken DT40 Tdp1-/-;hTDP1 cells + 20 nM CPT, ATP luminescence, 48 h; Potency, µM (top dose mostly 46.2 µM), actives largely listed as inhibitors; 420,000 tested, 12% active; also: nearly all actives have a fitted effect of over 55% in size
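Chicken DT40 Tdp1-/- cells complemented with human TDP1, 400 cells/well, exposed to compounds plus 20 nM camptothecin for at least 48 h at 37 C; viability read as ATP content by CellTiter-Glo luminescence.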
TDP1 inh – TDP1 (human) enzyme inhibition; Q9NUW8; AID 485290; 350,000 tested, 0.28% active; Potency, µM (titrated, usually from 130 µM), actives largely listed as inhibitors; recombinant TDP1, AlphaScreen DNA substrate cleavage; also: nearly all actives have a fitted effect of over 40% in size
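Enzyme-compound mixtures sat 15 min at room temperature, followed by a 5 min reaction with 15 nM final substrate and 10 min with AlphaScreen beads. Recombinant human Tdp1 was used at 1 nM final.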
miR-21 FLuc – raises the signal of a miR-21 reporter; HeLa miR-21 FLuc reporter, luciferase, 48 h; Potency, µM (top dose mostly 38.3 µM); AID 2288; 340,000 tested, under 10 active; active = well fitted rising curve with a large enough effect; inconclusive = small, poorly fitted or top-dose-only effect; inactive = no such curve, though single readings can be large or run the other way;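 note: miR-21 action dims this reporter so a rising signal means less miR-21 action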
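HeLa cells stably expressing CMV-driven firefly luciferase with a downstream miR-21 binding sequence, endogenously expressing miR-21, were treated with titrations (up to about 40uM final) for 48 hours at 37 degree Celsius. Luciferase luminescence was read after lysis.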
Numbers stand for hits; 0 = inactive; ? = inconclusive; - = no result. Unless noted, calls follow the shape of the dose curve; as a rule, active = well fitted curve in the direction sought with a large enough effect; inconclusive = small, poorly fitted or top-dose-only effect, or another doubt; inactive = no such curve, though single readings can be large; an effect the other way counts as inactive or inconclusive.

SMILES	DT40 TDP1 no CPT	uPA generation	TDP1 cell CPT	TDP1 inh	miR-21 FLuc
CCc1ccc(N/C(N)=N/c2nc(CSc3ccccn3)cc(=O)[nH]2)cc1	16µM	0	15µM	0	0
Cc1ccc(N/C(N)=N/c2nc(CSc3ccccn3)cc(=O)[nH]2)c(C)c1	18µM	0	?	0	0
COCc1cc(=O)[nH]c(/N=C(\N)Nc2ccc(C)cc2C)n1	0	0	0	0	0
O=c1c2sc3ccccc3c2n(Cc2cccc(C(F)(F)F)c2)c(=O)n1Cc1ccc(F)cc1	?	-	?	0	0
COc1cccc(NC(=O)CSc2nc(C3CC3)nc3ccccc23)c1	0	0	0	0	0
CC(C)Oc1ccccc1NC(=O)CSc1nc2ccccc2c(=O)n1C	?	?	21µM	-	0
COC(=O)c1cccc(NC(=O)CSc2nc3cccnc3n2C)c1	16µM	0	?	0	0
CCn1c(SCC(=O)Nc2ccccc2OC)nc2ccccc2c1=O	?	0	?	0	0
COC(=O)Cc1nnc(SCC(=O)Nc2ccccc2)c2ccccc12	23µM	?	18µM	0	0
COc1cccc(NC(=O)CSc2nc3ccccc3c(=O)n2C)c1	23µM	0	16µM	0	0
COC(=O)C1=C(C)N(CCc2cc(OC)c(OC)c(OC)c2)C(=O)N[C@H]1c1cccs1	-	-	-	0	0
Cn1c2c(c(=O)[nH]c1=O)C(c1cccc(O)c1)C1=C(N2)c2ccccc2C1=O (configuration not stated)	8.2µM	0	7.3µM	0	0
O=C(Nc1cccc(-c2cn3ccccc3n2)c1)c1cccc(Cl)c1	18µM	0	?	0	0
O=C(Nc1cccc(-c2cn3ccccc3n2)c1)c1cnccn1	?	0	?	0	0
Cc1cccc2nc(-c3cccc(NC(=O)c4ccc(Cl)cc4)c3)cn12	?	0	21µM	0	0
Cc1cccc2nc(-c3cccc(NC(=O)Cc4ccccc4)c3)cn12	?	0	?	0	0
COc1ccc(CNC(=O)c2ccccc2SCC(=O)NCc2ccco2)cc1	0	0	0	0	-
CCOc1ccc(C2C(C(=O)c3ccc(C)o3)=C(O)C(=O)N2CCN2CCOCC2)cc1OC (configuration not stated)	0	0	0	0	0
O=c1nc(Nc2cccc(Cl)c2)oc2cc(Cl)oc(=O)c12	0	0	0	0	0
CCOc1ccc(S(=O)(=O)n2cnc3cc(C)c(C)cc32)cc1	8.2µM	?	?	0	0
Cc1cc2ncn(S(=O)(=O)c3ccc(S(N)(=O)=O)cc3)c2cc1C	0	0	0	-	-
Cc1cc2ncn(S(=O)(=O)c3ccc(S(=O)(=O)N4CCCCCC4)cc3)c2cc1C	21µM	0	16µM	-	-
CC(C)(C)N1C(=O)[C@H]2[C@@H](c3ccc(Br)cc3)N3C(=O)N(c4cccc(F)c4)C(=O)[C@@]3(C)[C@H]2C1=O	0	0	?	0	-
CCC(=O)N1CCc2cc(S(=O)(=O)NCCC(=O)N3CCN(c4cccc(C)c4)C(C)C3)ccc21 (configuration not stated)	9.2µM	0	21µM	0	0
Cc1cccc(N2CCN(C(=O)CCNS(=O)(=O)c3cccs3)CC2C)c1 (configuration not stated)	21µM	0	?	0	0
SMILES	DT40 TDP1 no CPT	uPA generation	TDP1 cell CPT	TDP1 inh	miR-21 FLuc
CCC(=O)N1CCc2cc(S(=O)(=O)NCCC(=O)N3CCN(c4ccccc4)CC3)ccc21	21µM	0	?	0	0
CC1CC(C)CN(C(=O)CCNS(=O)(=O)c2cccs2)C1 (configuration not stated)	0	0	0	0	0
CCC(=O)N1CCc2cc(S(=O)(=O)NCCC(=O)N3CCN(c4cccc(OC)c4)CC3)ccc21	13µM	?	?	0	0
CCC(=O)N1CCc2cc(S(=O)(=O)NCCC(=O)N3CCN(Cc4ccccc4)CC3)ccc21	0	0	0	0	0
COc1cccc(N2CCN(C(=S)Nc3ccc(C)cc3C)CC2)c1	0	0	0	-	0
COc1ccc2nc(/N=C/c3cccc(OC)c3O)sc2c1	0	0	0	-	0
Cc1ccc(/C=C/C(=O)Nc2ccc(O)c3c(=O)cc(-c4ccccc4Cl)oc23)cc1	?	0	0	0	0
Cc1cccc(N2CCN(C(=O)CCS(=O)(=O)c3ccc4c(c3)CC(=O)N4C)CC2C)c1 (configuration not stated)	?	-	16µM	0	0
c1ccc(COc2ccc(CN3CCN(c4ccccn4)CC3)cc2)cc1	?	0	?	0	0
CCCCNC(=O)C(CC)Sc1nc2sc(C(=O)OC)c(C)c2c(=O)n1N (configuration not stated)	?	-	?	0	0
CCC(Sc1nc2sc(C(=O)OC)c(C)c2c(=O)n1N)C(=O)N(CC)CC (configuration not stated)	13µM	-	?	0	0
CCCCc1ccc(/C(C)=N/Nc2cc(N3CCOCC3)nc(C)n2)cc1	23µM	0	?	-	0
C/C(=N\Nc1cc(Cl)nc(C)n1)c1ccccc1	0	-	?	0	0
C/C(=N\Nc1cc(N2CCOCC2)nc(C)n1)c1cccc([N+](=O)[O-])c1	10µM	0	16µM	0	0
Cc1nc(N/N=C/c2ccc(O)cc2O)cc(N2CCOCC2)n1	?	0	?	-	0
Cc1nc(N/N=C/c2cccc([N+](=O)[O-])c2)cc(N2CCCCC2)n1	13µM	-	?	-	-
CCc1ccc(/C(C)=N/Nc2cc(Cl)nc(C)n2)cc1	?	-	23µM	0	0
COC(=O)c1cc(OC)c(OC)cc1NC(=O)CCCCCN1C(=O)CCC1=O	?	0	?	0	0
CN(C(=O)C12CC3CC(CC(C3)C1)C2)C1(C)CCS(=O)(=O)C1 (configuration not stated)	0	0	0	0	0
O=C(OCc1nnc(-c2ccccc2)o1)c1ccc([N+](=O)[O-])s1	0	0	?	0	-
COc1cccc(C(=O)Nc2ccc(Cl)c(C(F)(F)F)c2)c1	?	0	?	0	0
CC1(C)Cn2c(nnc2-c2cccc(O)c2)S1	0	0	0	0	0
C=CCOC(=O)C1=C(C)NC(SCC(=O)Nc2nccs2)=C(C#N)C1c1ccc(Cl)cc1 (configuration not stated)	32µM	0	22µM	0	0
O=[N+]([O-])c1ccccc1CN1CCN(c2ncccn2)CC1	?	0	0	-	0
O=[N+]([O-])c1ccccc1CN1CCN(Cc2ccccn2)CC1	?	0	26µM	0	0
O=[N+]([O-])c1ccccc1CN1CCN(Cc2c[nH]c3ccccc23)CC1	3.7µM	0	2.9µM	0	0
COc1ccc(F)cc1COc1nc(C)nc2ccccc12	18µM	0	?	0	0
CSc1ccc(CN(C)Cc2nc3ccccc3c(=O)[nH]2)cc1	15µM	0	?	0	0
